The source of these data is PubChem BioAssay AID588492 (Sanford-Burnham Center for Chemical Genomics, 2011).

This is a selection; strong and weak results do not stand in their true shares. Some structures show a salt or complex split into parts, the way the source records it. Active and inactive are the calls of the source.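 Rule for the calls: active = compounds giving at least 50% protection of heart cells from peroxide-induced death in the single-dose screen, raw or plate-pattern-corrected value; inactive = the rest.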

A short description of this test: H9c2 cardiomyocyte survival under peroxide injury – uHTS, H9c2 cells, ATPLite luminescence, primary screen (AID 588492).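 Note: 0% = DMSO wells with peroxide and 100% = DMSO wells without peroxide.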 To be noted: H9c2 cardiomyocytes, 2 h, at 20 µM, stronger effect = higher value.
On to `CCOC(=O)C(CC)C1=NC(C)(C)Cc2ccccc21.O=[N+]([O-])c1cc([N+](=O)[O-])c(O)c([N+](=O)[O-])c1` (stereo not given), for which the protection from H2O2 cell death is inactive: 2.7%. Turning to `O=[N+]([O-])c1cc([N+](=O)[O-])c(Nc2nnnn2CCO)c([N+](=O)[O-])c1`, the protection from H2O2 cell death was inactive: -1%.

As to `CN(C)C1(CNC(=O)c2ccc(S(C)(=O)=O)cc2)CCCCC1`, the protection from H2O2 cell death is inactive: -0.4%. Next, `CC1=C2N=C(C=C3N=C(C(C)=C4[N-][C@@](C)([C@@H]5N=C1[C@](C)(CCC(=O)NC[C@@H](C)OP(=O)([O-])O[C@H]1[C@@H](O)[C@@H](n6cnc7cc(C)c(C)cc76)O[C@@H]1CO)[C@H]5CC(N)=O)[C@@](C)(CC(N)=O)[C@@H]4CCC(N)=O)[C@@](C)(CC(N)=O)[C@@H]3CCC(N)=O)C(C)(C)[C@@H]2CCC(N)=O.[C-]#N.[Co+3]`: inactive: -10.1%; `COc1ccccc1OP(C)(=O)Nc1c(C)cccc1C` (stereo not given): inactive: 0.8%; `CN1CCCCC1COC(=O)C1(O)c2ccccc2CCc2ccccc21` (stereo not given): inactive: -0.9%.

For the compound `CP(=O)(Nc1ccc(SC(F)(F)F)cc1)Oc1ccccc1` (stereo not given), the protection from H2O2 cell death was inactive: -7.7%. Next, `CCCOc1ccc(NP(C)(=O)Oc2ccc(Cl)cc2)cc1` (stereo not given): inactive: 3.5%. With `O=[N+]([O-])c1cc([N+](=O)[O-])c(-n2nnc3ccccc32)c([N+](=O)[O-])c1`, the protection from H2O2 cell death is inactive: 0.9%. As to `CN(Cc1cccnc1)C(=O)COc1ccc(Cl)c(Cl)c1.O=[N+]([O-])c1cc([N+](=O)[O-])c(O)c([N+](=O)[O-])c1`, the protection from H2O2 cell death is inactive: -3.6%. Next, `O=[N+]([O-])c1cc([N+](=O)[O-])c(-c2cnn(-c3ccccc3)c2)c([N+](=O)[O-])c1`: inactive: -7.5%; `Cc1nc2ccc3ccccc3c2s1.O=[N+]([O-])c1cc([N+](=O)[O-])c(O)c([N+](=O)[O-])c1`: inactive: 0.3%. In the case of `COc1ccccc1OP(C)(=O)Nc1cccc(Br)c1` (stereo not given), the protection from H2O2 cell death is inactive: 0.8%. `COc1cc(C(=O)NCC2(N3CCOCC3)CCCCC2)cc(Cl)c1OC(C)C`: the protection from H2O2 cell death is inactive: -6.4%. For `Cc1cc(C)cc(OP(C)(=O)Nc2ccc(C)cc2C)c1` (stereo not given), the protection from H2O2 cell death was inactive: 2.9%. Consider `CCOC(=O)c1ccc(NP(C)(=O)Oc2cc(C)cc(C)c2)cc1` (stereo not given), for which the protection from H2O2 cell death was inactive: -0.5%.

As to `CP(=O)(Nc1cccc(Br)c1)Oc1ccccc1` (stereo not given), the protection from H2O2 cell death was inactive: 3.5%. On to `Cc1cc(C)cc(OP(C)(=O)Nc2ccccn2)c1` (stereo not given), for which the protection from H2O2 cell death was inactive: -2.7%. Then `Cc1ccc(C)c(NP(C)(=O)Oc2ccccc2)c1` (stereo not given), with inactive: 11.2%; and `O=C(O)c1cccc(Nc2c([N+](=O)[O-])cc([N+](=O)[O-])cc2[N+](=O)[O-])c1`, with inactive: -4%; and `CC1=NCCc2c1[nH]c1ccccc21.O=[N+]([O-])c1cc([N+](=O)[O-])c(O)c([N+](=O)[O-])c1`, with inactive: 8.6%.

`O=[N+]([O-])c1cc([N+](=O)[O-])c(Nc2cccnc2)c([N+](=O)[O-])c1`: the protection from H2O2 cell death was inactive: -21.2%. Next, `COc1cc(C(=O)NCC2(N3CCOCC3)CCCCC2)ccc1OCC(C)C`: inactive: -3.2%; `Cc1cccc(C)c1OP(C)(N)=O` (stereo not given): inactive: -10.7%.

For `CC(C)(C)c1ccc(OP(C)(=O)Nc2ccc(SC(F)(F)F)cc2)cc1` (stereo not given), the protection from H2O2 cell death is inactive: -10.9%.

With `O=[N+]([O-])c1ccc2c(c1)C=Nc1ccccc1O2`, the protection from H2O2 cell death is inactive: 8.9%.

`CCOC(=O)c1ccc(NP(C)(=O)Oc2ccccc2)cc1` (stereo not given): the protection from H2O2 cell death was inactive: 3.3%.

Turning to `Cc1ccc(NP(C)(=O)Oc2ccccc2)c(C)c1` (stereo not given), the protection from H2O2 cell death was inactive: 3.4%. In the case of `COc1ccccc1OP(C)(=O)Nc1ccc(C)cc1` (stereo not given), the protection from H2O2 cell death was inactive: 8.2%. Take `COc1ccc(OP(C)(=O)Nc2cccc(F)c2)cc1` (stereo not given): the protection from H2O2 cell death was inactive: 1.3%. Then `COc1ccccc1OP(C)(=O)Nc1cc(Cl)ccc1C` (stereo not given), with inactive: -3.7%; and `Cc1cc(C)cc(OP(C)(N)=O)c1` (stereo not given), with inactive: 1.2%.

For the compound `CCN(CC)CCCOC(=O)C(O)(c1ccccc1)c1ccccc1`, the protection from H2O2 cell death is inactive: 5.9%. Turning to `CP(=O)(Oc1ccccc1)OC(c1ccccc1)C(F)(F)F` (stereo not given), the protection from H2O2 cell death was inactive: -1.6%.

On to `Cc1cccc(C)c1OP(C)(=O)Nc1ccc(SC(F)(F)F)cc1` (stereo not given), for which the protection from H2O2 cell death is inactive: -1.1%.

As for `Cc1ccc(Nc2c([N+](=O)[O-])cc([N+](=O)[O-])cc2[N+](=O)[O-])cc1`, the protection from H2O2 cell death is inactive: -19.4%.

Turning to `CP(=O)(Nc1ccc(SC(F)(F)F)cc1)Oc1ccc(Cl)cc1` (stereo not given), the protection from H2O2 cell death is inactive: -12.5%. As for `Cc1cc(C)cc(OP(C)(=O)Nc2ccc(SC(F)(F)F)cc2)c1` (stereo not given), the protection from H2O2 cell death is inactive: -9.7%. Then `CCc1ccc(OP(C)(=O)N2CCN(c3ccc([N+](=O)[O-])cc3)CC2)cc1` (stereo not given), with inactive: -7.6%. Then `CP(=O)(NC(=O)Nc1ccccc1)Oc1ccccc1` (stereo not given), with inactive: -3.7%; and `CCOP(C)(=S)SCC(=O)NC(C)C(=O)O` (stereo not given), with inactive: 9.1%. Next, `CCOC(=O)c1ccc(NP(C)(=O)Oc2ccc(OC)cc2)cc1` (stereo not given): inactive: -2.1%. Take `O=[N+]([O-])c1cc([N+](=O)[O-])c(O)c([N+](=O)[O-])c1.c1ccc(Oc2ccncc2)cc1`: the protection from H2O2 cell death was inactive: 0.1%.

For the compound `CP(=O)(Nc1ccccn1)Oc1ccc(Cl)cc1` (stereo not given), the protection from H2O2 cell death is inactive: 4.2%. On to `CCCCOc1ccc(C(=O)NCC2(N3CCCCC3)CCCCC2)cc1OC`, for which the protection from H2O2 cell death is inactive: -1.2%.

For the compound `CP(=S)(Nn1cnnc1)Oc1ccccc1` (stereo not given), the protection from H2O2 cell death was inactive: -8.9%.

As to `COc1ccccc1OP(C)(=O)Nc1ccccc1` (stereo not given), the protection from H2O2 cell death was inactive: -0.8%. For the compound `CP(=O)(Nc1ccccc1Br)Oc1ccccc1` (stereo not given), the protection from H2O2 cell death was inactive: 5.9%. Then `CP(=O)(OC12CC3CC(CC(C3)C1)C2)OC12CC3CC(CC(C3)C1)C2`, with inactive: 2.9%; and `CCOC(=O)c1ccc(NP(C)(=O)Oc2ccc(Cl)cc2)cc1` (stereo not given), with inactive: -0.2%. For `COc1ccc(OP(C)(=O)Nc2ccc(Br)cc2)cc1` (stereo not given), the protection from H2O2 cell death was inactive: 3.1%.

For the compound `CCN(CC)CC(O)COC(=O)C(O)(c1ccccc1)C1CCCCC1` (stereo not given), the protection from H2O2 cell death is inactive: -9.2%.

Take `CCc1ccc(OP(C)(=O)Nc2cccnc2)cc1` (stereo not given): the protection from H2O2 cell death was inactive: -8.2%.

In the case of `CP(=O)(Oc1ccccc1)N1CCOC1=O` (stereo not given), the protection from H2O2 cell death is inactive: 8.7%. As to `O=C(OCCCN1CCCC1)C(O)(c1ccccc1)C1CCCCC1` (stereo not given), the protection from H2O2 cell death is inactive: -0.5%.

Turning to `COc1ccccc1OP(C)(=O)Nc1c(C)n(C)n(-c2ccccc2)c1=O` (stereo not given), the protection from H2O2 cell death is inactive: -0.3%.

As to `CP(=O)(Nc1ccc(Cl)cc1)Oc1ccc(F)cc1` (stereo not given), the protection from H2O2 cell death was inactive: -5.9%. For `CC(C)(C)c1ccc(OP(C)(=O)O)cc1`, the protection from H2O2 cell death is inactive: -6.4%. Next, `COc1ccccc1OP(C)(=O)Nc1ccccc1Br` (stereo not given): inactive: 5.9%.

Take `CN(C)C(=O)c1c([N+](=O)[O-])cc([N+](=O)[O-])cc1[N+](=O)[O-]`: the protection from H2O2 cell death is inactive: -12.6%. With `COc1ccccc1OP(C)(=O)Nc1ccc(Br)cc1` (stereo not given), the protection from H2O2 cell death was inactive: -1%. Then `CN(C)CCOC(=O)C(O)(c1ccccc1)C1CCCC1` (stereo not given), with inactive: -6.4%; and `COc1ccc(OP(C)(=O)Nc2ccccn2)cc1` (stereo not given), with inactive: 5.8%; and `O=[N+]([O-])c1cc([N+](=O)[O-])c(Nc2ccccn2)c([N+](=O)[O-])c1`, with inactive: -20.8%. Next, `Cc1c(NP(C)(=O)Oc2ccc(C(C)C)cc2)c(=O)n(-c2ccccc2)n1C` (stereo not given): inactive: 1.5%; `CCc1ccc(OP(C)(=O)O)cc1`: inactive: 5.1%; `COc1ccccc1OP(C)(=O)Nc1ccc(C)cc1C` (stereo not given): inactive: 0.1%. For `CP(=O)(Nc1ccccn1)Oc1ccccc1` (stereo not given), the protection from H2O2 cell death was inactive: 0.5%. On to `Cc1cc(C)cc(OP(C)(=O)Nc2cccc(C(F)(F)F)c2)c1` (stereo not given), for which the protection from H2O2 cell death was inactive: -7.7%. Then `O=C1C(O)=C([N+](=O)[O-])C(=O)C(O)=C1[N+](=O)[O-]`, with inactive: 5.9%. Then `COc1ccc(OP(C)(=O)Nc2ccccc2Br)cc1` (stereo not given), with inactive: 0.4%; and `COc1ccccc1OP(C)(=O)Nc1ccc(C)c(C)c1` (stereo not given), with inactive: -2.4%; and `CP(=O)(OCCOc1ccccc1)OCCOc1ccccc1`, with inactive: 8.5%.

On to `CP(=O)(Nc1ccc(Cl)cc1Cl)Oc1ccccc1` (stereo not given), for which the protection from H2O2 cell death is inactive: 1.3%. Take `CCCCCCCCCCCCCCCC1C[N+](C)(C)CCOP(C)(=O)O1` (stereo not given): the protection from H2O2 cell death was inactive: -9.7%. Then `COc1ccc(OP(C)(=O)Nc2ccc(SC(F)(F)F)cc2)cc1` (stereo not given), with inactive: -11%; and `CCOC(=O)c1ccc(NP(C)(=O)Oc2ccc(F)cc2)cc1` (stereo not given), with inactive: 6%. As for `CCN(CC)CCCOC(=O)C(O)(c1ccccc1)C1CCCCC1` (stereo not given), the protection from H2O2 cell death was inactive: -3.1%. Next, `Cc1c([N+](=O)[O-])cc([N+](=O)[O-])c(Br)c1[N+](=O)[O-]`: inactive: 4.7%. In the case of `O=[N+]([O-])c1cc([N+](=O)[O-])c(OC2CCCCC2O)c([N+](=O)[O-])c1` (stereo not given), the protection from H2O2 cell death was inactive: -0.8%. Then `CCCCCOc1ccc(NP(C)(=O)Oc2ccc(Cl)cc2Cl)cc1` (stereo not given), with inactive: -2%; and `CP(=O)(Nc1ccccc1)Oc1ccc(F)cc1` (stereo not given), with inactive: 7.5%. Next, `O=[N+]([O-])c1cc([N+](=O)[O-])c(Nc2ccc(Cl)cc2)c([N+](=O)[O-])c1`: inactive: -20.1%; `CC(C)c1ccc(OP(C)(=O)Nc2ccc(SC(F)(F)F)cc2)cc1` (stereo not given): inactive: -11.1%; `CP(=O)(Nc1ccccc1F)Oc1ccccc1` (stereo not given): inactive: 1.4%.

For the compound `O=C(OCCN1CCN(CCOCc2ccccc2)CC1)C(O)(c1ccccc1)c1ccccc1`, the protection from H2O2 cell death is inactive: -4.3%. For the compound `O=C(OC1CN2CCC1CC2)c1ccc([N+](=O)[O-])cc1` (stereo not given), the protection from H2O2 cell death is inactive: 3.4%. Next, `COc1ccc2c(c1O)-c1c(O)c(OC)cc3c1[C@H](C2)[N+](C)(C)CC3.O=[N+]([O-])c1cc([N+](=O)[O-])c([O-])c([N+](=O)[O-])c1[O-]`: inactive: 0.9%; `CP(=O)(Nc1ccc(SC(F)(F)F)cc1)Oc1ccc(F)cc1` (stereo not given): inactive: -6%; `CCOP(C)(=S)SCC(=O)NC(C)(CC)C(=O)O` (stereo not given): inactive: -2%. `CP(=O)(Nc1ccc2c(c1)OCCO2)Oc1ccccc1` (stereo not given): the protection from H2O2 cell death was inactive: 6.2%. Next, `Cc1ccccc1NP(C)(=O)Nc1ccccc1C`: inactive: 3.4%; `CN(C)C1(CNC(=O)c2ccc(Cl)c(S(N)(=O)=O)c2)CCCCC1`: inactive: 3.9%. Regarding `COc1ccc(OP(C)(=O)Nc2cccc(Br)c2)cc1` (stereo not given), the protection from H2O2 cell death was inactive: 1.9%. With `COc1ccc(NP(C)(=O)Oc2ccccc2OC)cc1` (stereo not given), the protection from H2O2 cell death is inactive: -7.2%. As for `CN(C)CCOC(=O)C(O)(c1ccccc1)C1CCCCC1` (stereo not given), the protection from H2O2 cell death is inactive: 6.1%. Then `O=[N+]([O-])c1cc([N+](=O)[O-])c(NCC2CCS(=O)(=O)C2)c([N+](=O)[O-])c1` (stereo not given), with inactive: -7.6%.

For `Cc1cc(-c2cccc3ccccc23)c(C)cn1.O=[N+]([O-])c1cc([N+](=O)[O-])c(O)c([N+](=O)[O-])c1`, the protection from H2O2 cell death was inactive: -2.2%. As for `O=[N+]([O-])c1ccc(OP2(=O)COCCO2)cc1` (stereo not given), the protection from H2O2 cell death is inactive: -4.5%. Consider `Cc1c(C(c2ccc3c(c2)OCO3)c2c(C)n(C)n(-c3ccccc3)c2=O)c(=O)n(-c2ccccc2)n1C.O=[N+]([O-])c1cc([N+](=O)[O-])c(O)c([N+](=O)[O-])c1`, for which the protection from H2O2 cell death was inactive: -1.6%.
